# Antibody variant affinities, Ab-14 heavy chain, assay B

From the AlphaSeq antibody data of Li et al. 2023 (doi:10.1038/s41467-023-39022-2), copy in the FLAb collection.

Target: peptide PDVDLGDISGINAS, taken from heptad repeat 2 (HR2) of SARS-CoV-2 spike.

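The starting antibody came from a phage panning campaign against this peptide. Designed CDR sequences, proposed from the first random library and measured here. Their group label is 14H_En_Gibbs (En: ensemble of fine-tuned language models; Gibbs: Gibbs sampling). The scFvs were displayed on barcoded MATa yeast, the peptide on MATalpha yeast. Binding brings cells together so that they mate, and sequencing counts the barcode pairs among the diploids. The ratio of observed to expected reads was calibrated, replicate by replicate, on BCL2-family standards whose Kd was known from biolayer interferometry. The assay was run in six technical replicates.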

Each scFv is VH, a (GGGGS)3 linker, VL, as in the parent Ab-14, and differs from it in the CDRs of the heavy chain only.
VH: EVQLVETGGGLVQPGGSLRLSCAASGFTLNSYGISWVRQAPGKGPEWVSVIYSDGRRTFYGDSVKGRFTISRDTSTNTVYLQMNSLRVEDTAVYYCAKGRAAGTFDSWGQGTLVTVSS
VL: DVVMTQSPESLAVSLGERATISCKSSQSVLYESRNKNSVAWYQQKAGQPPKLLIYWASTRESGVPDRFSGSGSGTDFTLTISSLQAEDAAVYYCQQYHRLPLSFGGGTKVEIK

Sequences are complete VH domains. Numbers give log10(Kd / nM), so 0 is 1 nM and 3 is 1 µM. Smaller is tighter. Where no diploid with the target was found in that replicate, the entry reads "ND": below detection, most likely a poor binder, though not proof of it. The authors' rule: three or more of the six replicates give a measured affinity, fewer mean a poor binder.

With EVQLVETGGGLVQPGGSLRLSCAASGFKLDEYGISWVRQAPGKGPEWVSVIYADGVRAHYKDSVKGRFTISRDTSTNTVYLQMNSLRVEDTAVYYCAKGVHQFNVVMWGQGTLVTVSS the result was ND, ND, ND, ND, ND, ND (controls 1 of 18).
With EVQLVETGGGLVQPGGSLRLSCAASGDDLDEVGISWVRQAPGKGPEWVSVIYADGVRNQYIQSVKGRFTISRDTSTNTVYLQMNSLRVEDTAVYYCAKGHNAGTFDYWGQGTLVTVSS the result was ND, 1.77, ND, 0.58, 0.94, 1.62 (controls 0 of 18).
With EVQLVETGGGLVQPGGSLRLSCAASGFSLDEYGISWVRQAPGKGPEWVSVIYADGMRTAYTQSVKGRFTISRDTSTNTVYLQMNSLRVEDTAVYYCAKGLMQQGRTMWGQGTLVTVSS the result was ND, ND, ND, ND, ND, ND (controls 0 of 18).
With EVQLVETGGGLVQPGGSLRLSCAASGEDLLEIGISWVRQAPGKGPEWVSVIYADGKRVAYTNAVKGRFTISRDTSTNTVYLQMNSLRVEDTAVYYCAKGNEAGVFTLWGQGTLVTVSS the result was ND, ND, ND, ND, ND, ND (controls 0 of 18).
With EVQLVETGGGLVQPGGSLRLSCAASGKDLQEYGVSWVRQAPGKGPEWVSVIYADGMRASYADSVKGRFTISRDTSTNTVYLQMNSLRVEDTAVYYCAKGNHAGYLDKWGQGTLVTVSS the result was ND, ND, ND, ND, ND, ND (controls 1 of 18).
With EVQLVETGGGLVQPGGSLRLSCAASGFWLDEYGISWVRQAPGKGPEWVSVIYADGKRVAYKNSVKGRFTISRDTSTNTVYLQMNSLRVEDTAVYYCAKGQFTYNFDVWGQGTLVTVSS the result was ND, ND, ND, ND, ND, ND (controls 0 of 18).
With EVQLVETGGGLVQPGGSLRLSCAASGFDLNEFGISWVRQAPGKGPEWVSVIYADGLQTFYTDNVKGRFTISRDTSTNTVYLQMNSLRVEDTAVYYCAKGGNQGAFVIWGQGTLVTVSS the result was ND, ND, ND, ND, ND, ND (controls 0 of 18).
With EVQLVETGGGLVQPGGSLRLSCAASGFALDEYGISWVRQAPGKGPEWVSVIYADGKRSAYHNKVKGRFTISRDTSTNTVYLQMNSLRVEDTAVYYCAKGGYSFLKGIWGQGTLVTVSS the result was ND, ND, ND, ND, ND, ND (controls 0 of 18).
With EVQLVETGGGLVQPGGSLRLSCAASGFDLQEYGISWVRQAPGKGPEWVSVIYADGVRMAYTDSVKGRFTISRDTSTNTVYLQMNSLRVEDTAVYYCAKGNWGGRDMLWGQGTLVTVSS the result was ND, ND, 1.16, ND, ND, ND (controls 0 of 18).
With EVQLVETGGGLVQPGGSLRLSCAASGFDLGEYGISWVRQAPGKGPEWVSVIYADGRRKGYSDAVKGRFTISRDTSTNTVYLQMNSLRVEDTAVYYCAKGINSINVTDWGQGTLVTVSS the result was ND, -0.12, 0.66, 0.48, 0.44, 0.12 (controls 0 of 18).
With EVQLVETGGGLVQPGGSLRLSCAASGFQVQEYGISWVRQAPGKGPEWVSVIYADGRRTQYTDAVKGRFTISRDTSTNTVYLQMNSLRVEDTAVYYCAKGKLNDVLFVWGQGTLVTVSS the result was ND, ND, ND, ND, ND, ND (controls 0 of 18).
With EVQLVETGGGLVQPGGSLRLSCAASGFDLNEYGISWVRQAPGKGPEWVSVIYADGKKTAFVNTVKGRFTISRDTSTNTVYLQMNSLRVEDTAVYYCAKGESGGNIDDWGQGTLVTVSS the result was ND, ND, ND, ND, ND, ND (controls 0 of 18).
With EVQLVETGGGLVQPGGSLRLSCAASGPSIDEYGISWVRQAPGKGPEWVSVIYADGVRQQYQDDVKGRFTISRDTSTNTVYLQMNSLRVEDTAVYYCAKGQIGGFFNYWGQGTLVTVSS the result was ND, ND, ND, ND, ND, ND (controls 0 of 18).
With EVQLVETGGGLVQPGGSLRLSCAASGADLNEYGISWVRQAPGKGPEWVSVIYADGSRTVYADTVKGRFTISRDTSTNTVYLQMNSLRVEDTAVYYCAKGHHGGIFDSWGQGTLVTVSS the result was ND, ND, ND, ND, ND, ND (controls 0 of 18).
With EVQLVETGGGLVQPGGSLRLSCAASGFNISEYGISWVRQAPGKGPEWVSVIYADGRRTSYKNKVKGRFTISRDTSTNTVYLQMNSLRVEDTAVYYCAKGNDTWLFDVWGQGTLVTVSS the result was ND, ND, ND, ND, ND, ND (controls 0 of 18).
With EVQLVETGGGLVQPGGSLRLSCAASGFKLEEYGISWVRQAPGKGPEWVSVIYADGQRVAYQDKVKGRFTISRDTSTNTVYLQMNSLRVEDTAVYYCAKGKHAGMFDVWGQGTLVTVSS the result was ND, ND, 1.27, ND, 1.26, 1.73 (controls 0 of 18).
With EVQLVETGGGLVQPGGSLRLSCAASGESLNEYGISWVRQAPGKGPEWVSVIYADGLRSKYADKFKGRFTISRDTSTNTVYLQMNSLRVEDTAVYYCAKGQLAGYGDVWGQGTLVTVSS the result was ND, ND, ND, ND, ND, ND (controls 0 of 18).
With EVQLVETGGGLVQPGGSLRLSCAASGFDLNEYGISWVRQAPGKGPEWVSVIYADGKRTRYSNNVKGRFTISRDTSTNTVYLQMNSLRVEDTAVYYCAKGGVGGIGLSWGQGTLVTVSS the result was ND, ND, ND, 1.94, ND, ND (controls 0 of 18).
With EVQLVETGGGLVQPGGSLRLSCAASGFQLDEYGISWVRQAPGKGPEWVSVIYADGLRQYYAQNVKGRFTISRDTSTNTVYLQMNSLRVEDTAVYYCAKGYNSFDINDWGQGTLVTVSS the result was ND, ND, ND, ND, ND, ND (controls 0 of 18).
With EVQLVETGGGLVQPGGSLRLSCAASGEDLDEYGISWVRQAPGKGPEWVSVIYADGRRVVYQDQVKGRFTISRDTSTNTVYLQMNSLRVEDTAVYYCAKGELAGTFDQWGQGTLVTVSS the result was ND, ND, ND, ND, ND, 1.44 (controls 0 of 18).
With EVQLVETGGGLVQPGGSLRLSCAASGFDLNEYGISWVRQAPGKGPEWVSVIYADGMRQRYAQNFKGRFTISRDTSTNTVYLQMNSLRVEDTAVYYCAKGYNSSDLTVWGQGTLVTVSS the result was ND, ND, ND, ND, ND, ND (controls 1 of 18).
With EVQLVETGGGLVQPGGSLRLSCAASGFDVQEYGISWVRQAPGKGPEWVSVIYADGRRTQYTDAVKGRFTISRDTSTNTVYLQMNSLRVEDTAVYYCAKGKLNMVLFVWGQGTLVTVSS the result was ND, ND, ND, ND, ND, ND (controls 0 of 18).

Background: pairings of all heavy chain designs with three empty control strains gave a value in 1% of cases (median 2.08, 5th percentile 0.84). Values in that range, when seen in few replicates, are hard to tell from nonspecific mating. Also given: how often the same scFv was detected with the empty control strains. The range of this assay differs from that of the first round, and the authors advise against merging the two.